{
  "source": "paper PMC6465285",
  "about": "“Arsinothricin, an arsenic-containing non-proteinogenic amino acid analog of glutamate, is a broad-spectrum antibiotic” (Communications Biology, 2019)",
  "test_system": "CP(=O)(O)CC[C@H](N)C(=O)O",
  "test": "purified protein",
  "conditions": "two conformations: PPT-1 as L-AST; PPT-2 with Phe33a, Ala124a, Val158a, Arg77b, Arg75b, Tyr80b, Val86a, Gly122a",
  "data": [
    {"substance": "PpArsN1 (ArsN1 N-acetyltransferase) (Pseudomonas putida KT2440)", "values": [
      {"measurement": "Km", "value": "1000 ± 200", "unit": "µM"},
      {"measurement": "kcat", "value": 9.6, "unit": "s⁻¹"},
      {"measurement": "kcat/Km", "value": 10000, "unit": "M⁻¹ s⁻¹"}
    ]}
  ]
}
